Assays:
Carbonic anhydrase 9 [1] = biological target: T1, Carbonic anhydrase 9 (Homo sapiens, UniProt Q16790)
Carbonic anhydrase 9 [2] = biological target: T1, Carbonic anhydrase 9; remark: listed apart in the source

IC50 (Carbonic anhydrase 9 [1]) [nM] | SMILES | Ki (Carbonic anhydrase 9 [2]) [nM]
650 | NS(=O)(=O)c1ccc(C(=O)N[C@@H]2O[C@H](CO)[C@@H](O)[C@H](O)[C@H]2O)cc1 | 
650 | NS(=O)(=O)c1ccc(C(=O)N[C@@H]2O[C@H](CO)[C@H](O)[C@H](O)[C@H]2O)cc1 | 
 | Cc1ccccc1[SeH] | 200
 | Cc1cccc(C)c1[SeH] | 180
 | COc1ccccc1[SeH] | 200

From ChEMBL document CHEMBL5104090, “Recent advances in the medicinal chemistry of carbonic anhydrase inhibitors” (Eur J Med Chem, 2021)
